In PubChem BioAssay AID619 (University of Pittsburgh Molecular Library Screening Center, 2007):
The entries are a selection whose mix differs from that of the whole data set. Calls of active or inactive are those of the source.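 The calls were made as follows: active = inhibition of 50% or more in the single-concentration screen; inactive = inhibition below 50%.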

Sequences of proteins named here, by UniProt entry; tags and fusion partners are left off.
UniProt P53350, whole entry: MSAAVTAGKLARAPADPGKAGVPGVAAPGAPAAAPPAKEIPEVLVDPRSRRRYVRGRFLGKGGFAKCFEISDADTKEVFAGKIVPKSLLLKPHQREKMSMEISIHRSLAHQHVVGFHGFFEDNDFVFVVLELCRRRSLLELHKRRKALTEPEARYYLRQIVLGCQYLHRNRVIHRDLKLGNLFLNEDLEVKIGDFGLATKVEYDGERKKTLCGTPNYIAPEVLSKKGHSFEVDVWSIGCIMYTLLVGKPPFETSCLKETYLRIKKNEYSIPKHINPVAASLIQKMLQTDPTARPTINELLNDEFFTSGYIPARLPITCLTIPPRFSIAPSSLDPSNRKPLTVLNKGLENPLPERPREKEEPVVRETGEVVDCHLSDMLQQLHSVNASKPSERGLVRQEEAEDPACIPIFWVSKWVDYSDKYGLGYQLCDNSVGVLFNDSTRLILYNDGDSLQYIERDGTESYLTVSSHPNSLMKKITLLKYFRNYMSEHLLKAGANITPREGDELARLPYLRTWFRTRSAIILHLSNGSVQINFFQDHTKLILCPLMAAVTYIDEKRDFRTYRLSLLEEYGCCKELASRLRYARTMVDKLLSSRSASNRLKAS

What follows are molecules tested against Serine/threonine-protein kinase PLK1 (Homo sapiens) (UniProt P53350) (assay: human PLK1 kinase inhibitors, primary screen, biochemical, TR-FRET (AID 619;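 also: 0% = DMSO max control and 100% = H-89 dihydrochloride min control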)). Conditions: recombinant PLK1 kinase, TR-FRET peptide phosphorylation; at 10 µM; hits give high values.
For `CCOc1ncccc1C(=O)NCC1(N2CCOCC2)CCCCC1`, the inhibition was inactive: -5.04%.
With `CCC(CO)(C(=O)OC1CN2CCC1CC2)c1ccccc1` (stereo not given) the inhibition was inactive: -13.5%.
`N/C(=N\O)c1c(N)no[n+]1[O-]` was tested, and the inhibition was inactive: -7.37%.
In the case of `c1ccc(CN2CCC(Nc3ccccc3)CC2)cc1`, the inhibition is reported as inactive: -9.4%.
With `N#CC1(Nc2ccccc2)CCN(CCc2ccccc2)CC1` the inhibition was inactive: -8.05%.
With `O=C(NCC1(N2CCOCC2)CCCCC1)c1cc(=O)[nH]c2ccccc12` the inhibition was inactive: -11.1%.
`CN1CCC(Nc2cccc(F)c2)CC1` was tested, and the inhibition was inactive: -5.48%.
In the case of `O=C(NCC1(N2CCOCC2)CCCCC1)c1cc2ccccc2o1`, the inhibition is reported as inactive: -12.4%.
In the case of `O=C(OC1CN2CCC1CC2)C1c2ccccc2Oc2ccccc21` (stereo not given), the inhibition is reported as inactive: -2.37%.
In the case of `COc1ccc(NC2CCN(CCc3ccccc3)CC2)c(OC)c1`, the inhibition is reported as inactive: -16.5%.
